Consider 2 substances from patent US7432398B2, “Inorganic acid salts of sibutramine” (CJ Corporation, priority 2005, dated 2008).

A short description of the data set: Evaluation of solubility in solutions having various pH values. As to conditions: for solubility compared to sibutramine hydrochloride: distilled water and buffer solutions at various pH values.
Setting [1] is: DW (distilled water), dissolved at 37° C.

Take sibutramine hydrogen sulfate: the “solubility compared to sibutramine hydrochloride” value was “greatly enhanced solubility”. Moreover, under setting [1], the “solubility (mg of sibutramine dissolved per ml of solution)” value worked out at 285 mg/mL. Moreover, under “pH 1.2, dissolved at 37° C.”, the “solubility (mg of sibutramine dissolved per ml of solution)” value came to 333 mg/mL. Also, the “solubility (mg of sibutramine dissolved per ml of solution)” value (pH 4.0, dissolved at 37° C.) is 333 mg/mL. Further, for the setting “pH 5.3, dissolved at 37° C.”, the “solubility (mg of sibutramine dissolved per ml of solution)” value is 400 mg/mL. Further, the “solubility (mg of sibutramine dissolved per ml of solution)” value (pH 6.8, dissolved at 37° C.) was determined as 370 mg/mL. Where the note is “pH 7.4, dissolved at 37° C.”, the “solubility (mg of sibutramine dissolved per ml of solution)” value worked out at 400 mg/mL.
Regarding “sibutramine phosphate monohydrate [Sibutramine phosphate hydrate]”, the “solubility compared to sibutramine hydrochloride” value is “greatly enhanced solubility”. In addition, the “solubility (mg of sibutramine dissolved per ml of solution)” value under setting [1] came to 38.86 mg/mL. In addition, the “solubility (mg of sibutramine dissolved per ml of solution)” value (pH 1.2, dissolved at 37° C.) was 23.92 mg/mL. The “solubility (mg of sibutramine dissolved per ml of solution)” value (pH 4.0, dissolved at 37° C.) came out at 50 mg/mL. Under “pH 5.3, dissolved at 37° C.”, the “solubility (mg of sibutramine dissolved per ml of solution)” value was 50 mg/mL. The “solubility (mg of sibutramine dissolved per ml of solution)” value (pH 6.8, dissolved at 37° C.) turned out to be 24.55 mg/mL. In addition, the “solubility (mg of sibutramine dissolved per ml of solution)” value (pH 7.4, dissolved at 37° C.) was found to be 50 mg/mL.
